Earlier results as cited in patent US12673052B2, “Combinations for the treatment of cancer” (Exelixis, Inc., priority 2020, dated 2026).

Conditions: in vivo, iv; cited from earlier work

## bempegaldesleukin: recombinant human IL-2 conjugated with an average of six releasable chains of polyethylene glycol; CD122-preferential IL-2 pathway agonist
  time of peak plasma concentration of active bempegaldesleukin-related species (2-PEG-IL-2 and 1-PEG-IL-2): 24 to 48 h
